Data published in publication PMC10820861, “Furofuranoid-Type Lignans and Related Phenolics from Anisacanthus virgularis (Salisb.) Nees with Promising Anticholinesterase and Anti-Ageing Properties: A Study Supported by Molecular Modelling” (Plants, 2024).

Protein sequences, listed by entry. Tags and fused reporters are not part of them. Residues count along the entry.
UniProt O42275, 24-633: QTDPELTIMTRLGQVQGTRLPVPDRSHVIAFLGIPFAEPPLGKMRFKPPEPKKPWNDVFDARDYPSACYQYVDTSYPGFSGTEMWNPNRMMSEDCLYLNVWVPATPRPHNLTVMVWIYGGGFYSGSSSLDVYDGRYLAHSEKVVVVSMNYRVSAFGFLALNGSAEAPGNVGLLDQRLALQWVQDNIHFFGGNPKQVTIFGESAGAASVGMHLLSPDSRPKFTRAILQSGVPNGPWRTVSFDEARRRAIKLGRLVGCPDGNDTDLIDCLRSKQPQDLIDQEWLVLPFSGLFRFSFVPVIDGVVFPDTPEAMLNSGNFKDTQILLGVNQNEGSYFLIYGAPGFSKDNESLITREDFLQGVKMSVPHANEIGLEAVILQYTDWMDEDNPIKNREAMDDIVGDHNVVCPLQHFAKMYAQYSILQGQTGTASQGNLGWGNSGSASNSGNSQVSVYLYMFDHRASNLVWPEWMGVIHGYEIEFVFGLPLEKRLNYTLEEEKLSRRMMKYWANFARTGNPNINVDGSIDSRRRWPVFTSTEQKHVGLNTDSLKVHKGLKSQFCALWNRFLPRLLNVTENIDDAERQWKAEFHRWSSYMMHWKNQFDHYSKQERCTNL

Biological target: T1, AChE (Electrophorus electricus, UniProt O42275)
T1 construct: purchased
Format: biochemical
Conditions: read-out: IC50 (AChE inhibition); mean ± SD

Substance: phillyrin [Compound 4]
- IC50: 279 ± 11 nM
